# In US9663522B2, “3-aminocycloalkyl compounds as RORgammaT inhibitors and uses thereof” (Merck Sharp & Dohme Corp., priority 2012, dated 2017):
# Amino acid sequences for entries named in this document (tags omitted). Residues count along the entry.
# UniProt P51449, 269-508: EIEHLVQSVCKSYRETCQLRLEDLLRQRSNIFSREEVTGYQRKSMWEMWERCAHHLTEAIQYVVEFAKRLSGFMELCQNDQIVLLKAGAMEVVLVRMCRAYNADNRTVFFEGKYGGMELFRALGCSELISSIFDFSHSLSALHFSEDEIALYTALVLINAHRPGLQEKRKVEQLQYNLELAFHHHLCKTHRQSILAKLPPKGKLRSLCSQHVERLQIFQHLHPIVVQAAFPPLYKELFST
# Biological target: human RORgammaT-Ligand Binding Domain (LBD) (Homo sapiens (Human), UniProt P51449)
# Assay: biochemical
smiles,measurement,value
"O=C(O)C1CCN(c2nn(C(=O)c3c(Cl)cccc3C(F)(F)F)c3cccnc23)CC1O (stereo not shown) [Example 1K, 1-(1-(2-chloro-6-(trifluoromethyl)benzoyl)-1H-pyrazolo[4,3-b]pyridin-3-yl)-3-hydroxypiperidine-4-carboxylic acid]",IC50,164 nM
